In article PMC3923779, “Iron Acquisition in Bacillus cereus: The Roles of IlsA and Bacillibactin in Exogenous Ferritin Iron Mobilization” (PLoS Pathogens, 2014):

Molecular target: T1, IlsA (Iron-regulated leucine rich surface protein type A), recombinant, without signal peptide (Bacillus cereus strain ATCC14579, UniProt Q81G77 29-760)
T1 construct: IlsA of Bacillus cereus strain ATCC14579, NCBI gene number Bc1331; Holo form (hemin added until saturation of 80%) in the ITC; also called Holo-IlsA; full-length IlsA; source: E. coli C600 ΔhemA, purified (Bulk GST Purification Module, eluted with PreScission Protease); produced in apo-form, hemin added to reconstitute the holo-protein
T1 sequence (looked up): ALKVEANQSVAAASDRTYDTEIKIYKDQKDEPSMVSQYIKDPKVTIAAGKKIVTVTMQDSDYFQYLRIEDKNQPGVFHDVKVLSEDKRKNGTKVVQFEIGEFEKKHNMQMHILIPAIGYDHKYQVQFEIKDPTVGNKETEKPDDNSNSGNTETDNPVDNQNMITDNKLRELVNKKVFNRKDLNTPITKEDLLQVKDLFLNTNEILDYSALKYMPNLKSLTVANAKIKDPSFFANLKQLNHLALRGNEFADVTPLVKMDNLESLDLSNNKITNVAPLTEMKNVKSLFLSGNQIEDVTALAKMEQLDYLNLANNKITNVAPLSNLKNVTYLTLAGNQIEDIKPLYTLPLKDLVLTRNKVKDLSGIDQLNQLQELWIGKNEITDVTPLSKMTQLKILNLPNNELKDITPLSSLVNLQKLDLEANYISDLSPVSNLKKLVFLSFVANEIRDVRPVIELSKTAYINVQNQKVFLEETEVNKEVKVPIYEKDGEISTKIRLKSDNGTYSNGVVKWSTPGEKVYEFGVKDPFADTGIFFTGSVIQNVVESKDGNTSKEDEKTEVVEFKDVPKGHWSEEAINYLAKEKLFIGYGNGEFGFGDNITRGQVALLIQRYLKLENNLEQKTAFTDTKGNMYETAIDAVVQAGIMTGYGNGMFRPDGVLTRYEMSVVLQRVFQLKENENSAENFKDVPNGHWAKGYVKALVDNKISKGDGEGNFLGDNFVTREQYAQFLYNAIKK
Assay: ITC; 16 injections of 3 µl of 229 µM holo-IlsA into the cell with 1 µM ferritin; 25°C; 50 mM Tris-HCl pH 7, 150 mM NaCl, 1 mM EDTA, 1 mM DTT; model of one set of independent binding sites; apparent values
Conditions: both partners purified

B1: recombinant human L-chain ferritin (natural protein, UniProt P02792 1-175, looked up)
chain: MSSQIRQNYSTDVEAAVNSLVNLYLQASYTYLSLGFYFDRDDVALEGVSHFFRELAEEKREGYERLLKMQNQRGGRALFQDIKKPAEDEWGKTPDAMKAAMALEKKLNQALLDLHALGSARTDPHLCDFLETHFLDEEVKLIKKMGDHLTNLHRLGGPEAGLGEYLFERLTLKHD
notes: human ferritin L-chain, recombinant homopolymer of 24 L-subunits; also called HuLF; recombinant human homopolymer L-chain; copies: 24
B1 was tested, and the Ka was 836000 M⁻¹.
